For two molecules, Ratio results are on record in ChEMBL document CHEMBL1151084, “Synthesis and biological properties of quaternized N-methylation analogs of D-Arg-2-dermorphin tetrapeptide” (Bioorg Med Chem Lett, 1994).

The chains behind the UniProt entries cited, without tags or fusion partners.
UniProt P41143, whole entry, looked up: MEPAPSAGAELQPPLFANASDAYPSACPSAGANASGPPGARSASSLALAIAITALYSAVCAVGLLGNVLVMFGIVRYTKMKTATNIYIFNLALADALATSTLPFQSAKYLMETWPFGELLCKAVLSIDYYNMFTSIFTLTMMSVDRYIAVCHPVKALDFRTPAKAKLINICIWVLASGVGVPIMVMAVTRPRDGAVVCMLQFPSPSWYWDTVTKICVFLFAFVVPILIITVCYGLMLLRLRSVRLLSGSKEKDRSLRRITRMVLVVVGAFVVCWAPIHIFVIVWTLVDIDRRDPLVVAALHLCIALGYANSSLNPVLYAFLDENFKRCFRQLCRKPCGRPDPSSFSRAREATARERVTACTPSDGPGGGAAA
UniProt P35372, whole entry, looked up: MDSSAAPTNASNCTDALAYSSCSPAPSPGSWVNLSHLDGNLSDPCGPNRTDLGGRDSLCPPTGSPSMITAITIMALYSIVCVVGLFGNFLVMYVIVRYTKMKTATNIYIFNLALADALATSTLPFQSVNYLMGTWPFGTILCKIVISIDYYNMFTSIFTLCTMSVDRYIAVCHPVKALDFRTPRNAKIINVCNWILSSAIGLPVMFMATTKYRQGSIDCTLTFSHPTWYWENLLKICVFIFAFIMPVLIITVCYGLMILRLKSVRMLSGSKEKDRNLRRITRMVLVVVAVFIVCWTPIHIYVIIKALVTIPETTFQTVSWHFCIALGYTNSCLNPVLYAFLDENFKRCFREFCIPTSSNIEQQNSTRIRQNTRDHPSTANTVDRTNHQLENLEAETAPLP

Molecules are shown by their SMILES.

The target in the test is Opioid receptors; mu & delta (Homo sapiens) (UniProt P41143+P35372). Nature of the test: Ratio of Ki of mu-opioid receptor to that of Ki of delta-opioid receptor. It is filed as protein assay.

With `C[N+](C)(C)CC[C@H](NC(=O)[C@H](Cc1ccccc1)NC(=O)[C@H](CCCN=C(N)N)NC(=O)[C@@H](N)Cc1ccc(O)cc1)C(N)=O`, the Ratio was 779.

On to `C[N+](C)(C)CCC[C@H](NC(=O)[C@H](Cc1ccccc1)NC(=O)[C@@H](CCCN=C(N)N)NC(=O)[C@@H](N)Cc1ccc(O)cc1)C(N)=O`, for which the Ratio amounted to 193.
